The target in this experiment is T1, ProRS (amino acids 998–1513 of human EPRS) (Homo sapiens, UniProt P07814).
T1 sequence (P07814 998-1512 limits assumed): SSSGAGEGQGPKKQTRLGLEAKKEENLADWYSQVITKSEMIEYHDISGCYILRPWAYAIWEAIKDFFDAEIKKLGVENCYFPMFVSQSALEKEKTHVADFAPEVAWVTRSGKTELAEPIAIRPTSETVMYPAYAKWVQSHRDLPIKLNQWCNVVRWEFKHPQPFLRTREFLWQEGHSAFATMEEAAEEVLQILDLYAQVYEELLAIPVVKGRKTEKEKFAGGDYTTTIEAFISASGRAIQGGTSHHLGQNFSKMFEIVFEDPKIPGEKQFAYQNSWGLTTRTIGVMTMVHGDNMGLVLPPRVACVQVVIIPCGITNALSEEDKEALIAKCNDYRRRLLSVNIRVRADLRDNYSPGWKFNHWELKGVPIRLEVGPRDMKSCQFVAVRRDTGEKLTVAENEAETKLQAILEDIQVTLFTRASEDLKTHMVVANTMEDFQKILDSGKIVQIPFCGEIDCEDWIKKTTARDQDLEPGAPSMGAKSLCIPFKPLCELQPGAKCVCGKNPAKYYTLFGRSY
The experiment in a line: [3H]-HFol binding to immobilized ProRS. The settings on record: Fig. 3a. In short, it runs like this:
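His6-tagged human EPRS prolyl-tRNA synthetase domain, expressed in E. coli, immobilized on Ni-NTA beads. Beads washed twice in ice-cold buffer; bound counts by scintillation, with beads given tag-free E. coli extract as background.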

`O=C(C[C@H]1NCCC[C@@H]1O)Cn1cnc2ccccc2c1=O` [FF, febrifugine]: the “competition of [3H]-HFol binding to ProRS” value is recorded as “competed”.

The record behind these values is publication PMC3281520 (Nature chemical biology, 2012).
